Assay results as given in patent publication EP4840855A1, “SULFONAMIDE DERIVATIVE, PREPARATION METHOD THEREFOR AND USE THEREOF” (dated 2026).

The chains behind the UniProt entries cited, without tags or fusion partners.
UniProt Q9NRF8, whole entry: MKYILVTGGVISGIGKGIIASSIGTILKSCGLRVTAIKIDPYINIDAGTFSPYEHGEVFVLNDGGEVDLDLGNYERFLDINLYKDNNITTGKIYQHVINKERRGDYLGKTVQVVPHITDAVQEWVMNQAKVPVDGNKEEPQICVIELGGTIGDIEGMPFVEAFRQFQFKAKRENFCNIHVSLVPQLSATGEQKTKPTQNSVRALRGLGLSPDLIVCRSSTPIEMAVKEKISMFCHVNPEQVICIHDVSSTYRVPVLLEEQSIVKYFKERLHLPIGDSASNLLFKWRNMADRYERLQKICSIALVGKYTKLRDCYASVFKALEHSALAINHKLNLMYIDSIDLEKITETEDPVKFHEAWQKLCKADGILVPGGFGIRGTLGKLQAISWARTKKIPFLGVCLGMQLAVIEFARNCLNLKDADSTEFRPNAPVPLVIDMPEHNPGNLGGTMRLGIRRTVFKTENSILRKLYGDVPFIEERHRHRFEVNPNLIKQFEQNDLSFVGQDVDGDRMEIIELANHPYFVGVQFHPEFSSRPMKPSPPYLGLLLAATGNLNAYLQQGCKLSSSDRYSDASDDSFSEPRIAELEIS

Columns and labels:
[1] = target: human cytidine triphosphate synthase 2 (hCTPS2) (Homo sapiens, UniProt Q9NRF8); experiment: Inhibition on hCTPS2 enzyme activity (ADP-Glo Kinase Assay), selectivity hCTPS1 versus hCTPS2
Method: The following method was used to determine the degree of inhibition on human cytidine triphosphate synthase 2 (hCTPS2) enzyme activity by the compounds of the present disclosure in vitro. ADP-Glo™ Kinase Assay kit (catalog number V9102) from Promega was used. The kit's manual may be referred for a detailed experimental procedure.
The experimental procedure was briefly described as follows: The reaction was performed in a buffer containing 50 mM 4-hydroxyethylpiperazineethanesulfonic acid (HEPES), 10 mM magnesium chloride, 5 mM potassium chloride, 0.01% Pluronic F127, and 4 mM dithiothreitol in a 384-well plate. First, 100 nL of gradient-diluted compound was transferred to a 384-well reaction plate via a nanoliter acoustic liquid transfer system (manufacturer: Labcyte; catalog number: Echo 655), and 2.5 µL of buffer containing hCTPS2 was added, followed by incubation in a 25°C incubator for 10 minutes. Then 2.5 µL of buffer containing ATP and UTP was added, followed by incubation in a 25°C incubator for 10 minutes. Finally, 5 µL of buffer containing GTP and L-glutamine (L-Gln) was added to initiate the reaction. The final reaction system was: 40 nM hCTPS2, 120 µM ATP, 160 µM UTP, 60 µM GTP, 100 µM L-Glutamine, 1% DMSO, with a total assay volume of 10 µL. The reaction was performed for 120 minutes, then 10 µL of ADP-Glo Reagent was added to terminate the reaction, followed by incubation for 1 hour. Then 20 µL of Kinase Detection Reagent was added, and after 1 hour, the chemiluminescence value was recorded on an Envision multilabel microplate detector (manufacturer: PerkinElmer; catalog number: Envision 2104). The percentage inhibition rates of the compounds at each concentration were calculated by comparing the chemiluminescence intensity ratio with a control group (0.1% DMSO). The IC50 value of the compounds were obtained by nonlinear regression analysis of compound concentration logarithm-inhibition rate using GraphPad Prism 5 software.
The fold selectivity between CTPS1 and CTPS2 was calculated according to the following equation: Fold selectivity = hCTPS2 IC50/hCTPS1 IC50 [formula]

[2] = tested on: MIA PaCa-2 cells (human pancreatic cancer cells); experiment: Inhibition of MIA PaCa-2 cell proliferation (CellTiter-Glo cell viability); conditions: 120 hours culture
Method: The following method was used to determine the effect of the compounds of the present disclosure on the proliferation of MIA PaCa-2 cells (human pancreatic cancer cells). MIA PaCa-2 cells were purchased from the Cell Resource Center of Shanghai Institutes for Biological Sciences, Chinese Academy of Sciences, and were cultured in DMEM medium containing 10% fetal bovine serum, 2.5% heat-inactivated horse serum, 1% sodium pyruvate (Gibco, catalog number 11360070), 100 U penicillin, and 100 µg/mL streptomycin. Cell viability was determined using CellTiter-Glo® Luminescent Cell Viability Assay kit (Promega, catalog number G7573).
The experimental method was performed according to the steps in the kit's manual, briefly described as follows: The test compound was first dissolved in DMSO to prepare a 10 mM stock solution, then diluted with medium to prepare test samples, with a final concentration range of the compound from 10000 nM to 1.52 nM. Cells in logarithmic growth phase were seeded into a 96-well cell culture plate at a density of 1000 cells per well, then the test compounds were added, and the cells were cultured in a 37°C CO2 incubator for 120 hours. After culture was completed, 50 µL of CellTiter-Glo detection reagent was added to each well, the plate was shaken for 5 minutes, then allowed to stand for 10 minutes, and then the luminescence value of each well of the sample was read on a microplate reader using Luminescence mode. The percentage inhibition rates of the compounds at each concentration point were calculated by comparing with the value of a control group (0.1% DMSO). Then nonlinear regression analysis was performed on compound concentration logarithm-inhibition rate in GraphPad Prism 9 software to obtain the IC50 values of the compounds for inhibiting cell proliferation, as shown in Table 5. Table 5 IC50 data for inhibition of MIA PaCa-2 cell proliferation by the compounds of the present disclosure

[3] = tested on: Jurkat (Clone E6-1) cells; experiment: Inhibition on Jurkat cell proliferation (CellTiter-Glo cell viability); conditions: 72 hours culture

Row | Fold selectivity ([1]; Fold selectivity = hCTPS2 IC50/hCTPS1 IC50) | IC50 ([1]; read-out: hCTPS2 IC50, 40 nM hCTPS2, 120 µM ATP, 160 µM UTP, 60 µM GTP, 100 µM L-Glutamine, 120 minutes) | IC50 [2] | IC50 [3] | Structure (SMILES)
1 | > 1000 | > 10000 nM | 45.5 nM | 4.32 nM | CCOc1cncc(-c2cnc(C(=O)NC3(c4cc(NS(=O)(=O)C5CC5)ncn4)CC4CC4C3)s2)n1 (stereo not drawn)
2 | – | – | 50.8 nM | 11.1 nM | CCOc1cncc(-c2ccc(NC(=O)C3(c4cc(NS(=O)(=O)C5CC5)ncn4)CC4CC4C3)c(F)c2)n1 (stereo not drawn)
